Assay results taken from PMC4237944, “SIRT1 overexpression ameliorates a mouse model of SOD1-linked amyotrophic lateral sclerosis via HSF1/HSP70i chaperone system” (2014).

Target: human Cu/Zn-superoxide dismutase (SOD1) with the ALS-linked mutation G93A (human)
Test: immunoblot of an SDS-resistant dimer after SDS-PAGE

How did the stoichiometry N turn out when “human Cu/Zn-superoxide dismutase (SOD1) with the ALS-linked mutation G93A (natural protein)” was run?
The stoichiometry N was 2.
